Tested on: Plasmodium berghei
Experiment: Antimalarial activity against Plasmodium berghei ANKA infected in perorally dosed NMRI mice (Mus musculus) assessed as reduction in parasitemia administered as single dose measured on day 3 postinfection
Format: functional

Row | SMILES | inhibition
1 | COc1ccc(OC)c(CNc2ccc3nc(N)nc(N)c3c2Cl)c1 | Dose dependent effect
2 | C[C@H]1[C@H](OC(=O)CCC(=O)O)O[C@@H]2O[C@@]3(C)CC[C@H]4[C@H](C)CC[C@@H]1[C@@]24OO3 [ARTESUNATE] | Dose dependent effect

Reference: ChEMBL document CHEMBL1255487, “Preclinical evaluation of the antifolate QN254, 5-chloro- N'6'-(2,5-dimethoxy-benzyl)-quinazoline-2,4,6-triamine, as an antimalarial drug candidate” (Antimicrob Agents Chemother, 2010)
